Earlier results as cited in patent US20160317408A1, “KERATIN FIBRE DYEING METHOD” (ALFA PARF GROUP S.p.A., priority 2015, published 2016).

Tests used:
[1] = Opinion SCCS/1409/11
[2] = value assigned from SCCS memorandum class; composition containing the dye

Nc1ccc(O)cc1 [p-aminophenol]
sensitising power classification [1]: strong
individual sensitisation index value of the dye [2]: 1
